Source: ChEMBL document CHEMBL4765391, “Design, synthesis, and Structure-Activity Relationships (SAR) of 3-vinylindazole derivatives as new selective tropomyosin receptor kinases (Trk) inhibitors” (Eur J Med Chem, 2020)

Protein sequences, listed by entry. Tags and fused reporters are not part of them.
UniProt Q16620, whole entry: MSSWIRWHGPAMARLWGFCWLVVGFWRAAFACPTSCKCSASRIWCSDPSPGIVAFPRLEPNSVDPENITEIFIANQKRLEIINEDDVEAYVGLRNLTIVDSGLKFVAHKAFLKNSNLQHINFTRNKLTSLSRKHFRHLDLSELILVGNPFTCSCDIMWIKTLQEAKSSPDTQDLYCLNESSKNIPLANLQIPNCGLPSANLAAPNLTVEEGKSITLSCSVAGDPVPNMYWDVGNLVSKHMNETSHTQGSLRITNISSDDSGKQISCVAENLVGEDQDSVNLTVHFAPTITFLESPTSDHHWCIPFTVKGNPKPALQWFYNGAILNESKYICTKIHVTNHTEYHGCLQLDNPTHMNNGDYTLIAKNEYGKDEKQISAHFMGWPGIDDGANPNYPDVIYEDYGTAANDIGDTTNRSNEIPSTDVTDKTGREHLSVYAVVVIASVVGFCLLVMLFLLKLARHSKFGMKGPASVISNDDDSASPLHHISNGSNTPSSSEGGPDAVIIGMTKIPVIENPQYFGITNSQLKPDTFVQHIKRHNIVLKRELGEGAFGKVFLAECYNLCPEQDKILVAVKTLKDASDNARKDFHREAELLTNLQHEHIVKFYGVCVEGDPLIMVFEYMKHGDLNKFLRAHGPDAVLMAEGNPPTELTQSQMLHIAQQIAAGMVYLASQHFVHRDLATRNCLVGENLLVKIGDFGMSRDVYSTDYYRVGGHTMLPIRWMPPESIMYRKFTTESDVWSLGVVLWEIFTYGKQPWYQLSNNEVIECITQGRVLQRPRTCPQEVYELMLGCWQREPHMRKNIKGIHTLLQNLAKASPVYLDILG

Assays:
[1] = molecular target: T1, BDNF/NT-3 growth factors receptor (Homo sapiens, UniProt Q16620); test: Inhibition of TrkB (unknown origin) using Tyr1 peptide as substrate in presence of ATP measured after 2 hrs by FRET-based Z-Lyte kinase assay
[2] = molecular target: T1, BDNF/NT-3 growth factors receptor; test: Binding affinity to wild-type human partial length TRKB (Q547 to G838 residues) expressed in mammalian expression system by Kinomescan method relative to control

C[C@@H](Nc1ccc2[nH]nc(/C=C/c3ccccn3)c2c1)c1cc(F)cc(F)c1 showed a pIC50 [1] of 8.54 and a pKd [2] of 8.51.

pIC50, pKd: −log10 of the molar value.
